For the experiment, the system named is WT brown preadipocytes. Briefly: Brown adipocyte differentiation, Oil Red O staining. It counts as cell-based, mouse. As to conditions: 33 nM BMP, 10 days, absence of induction cocktail. The method, then: Preadipocytes were grown to confluence (day 0) in differentiation medium (Dulbecco's modified […] medium containing 10% Fetal Bovine Serum supplemented with 20 nM insulin and 1 nM T3). Adipocyte differentiation was induced by treating confluent cells for 48 hours in differentiation medium further supplemented with 0.5 mM isobutylmethylxanthine (IBMX), 0.5 mM dexamethazone, and 0.125 mM indomethacin. After this induction period (day 2), cells were placed back to differentiation medium, which was then changed every second day.
Dishes were washed twice with phosphate-buffered saline and fixed with 10% buffered formalin for at least 1 hour at room temperature. Cells were then stained for 2 hours at room temperature with a filtered oil red 0 solution (0.5% oil red 0 in isopropyl alcohol), washed twice with distilled water, and visualized.
Brown fat precursor cells were isolated from intrascapular brown fat of newborn mice and immortalized by SV40 T antigen. […] Once fully differentiated, multi-locular fat droplets could be detected both microscopically and by Oil Red-O staining. Expression of UCP-1 was detected at basal state and upon β-adrenergic stimulation, confirming the features of brown adipocytes (methods described in Klein et al., J. Biol. Chem. 274:34795-34802 (1999)). […]

Experimental findings from patent US9132169B2, “Methods and compositions for modulating adipocyte function” (Joslin Diabetes Center, Inc., priority 2003, dated 2015) are described below.

B1: BMP-2: bone morphogenetic protein 2, added at 33 nM to culture medium (protein, listed as Homo sapiens)
chain: QAKHKQRKRLKSSCKRHPLYVDFSDVGWNDWIVAPPGYHAFYCHGECPFPLADHLNSTNHAIVQTLVNSVNSKIPKACCVPTELSAISMLYLDENEKVVLKNYQDMVVEGCGCR
As for B1, the “lipid accumulation as monitored by Oil Red O staining (brown adipocyte differentiation)” value is recorded as “substantial increase in lipid accumulation”.
